How the values were obtained:
[1] = molecular target: human L1 EN domain (1-239) (Homo sapiens (Human), UniProt O00370); test: plasmid nicking L1 EN activity biochemical assay
[2] = molecular target: L1 EN (Homo sapiens (Human), UniProt O00370); test: fluorescent oligonucleotide nicking assay; assay type: biochemical
[3] = molecular target: EN (L1 endonuclease domain), fluorescently labeled (Homo sapiens (Human), UniProt O00370); test: spectral shift binding affinity measurement; conditions: mean ± s.d., N.D. = binding not detected

Sequences of proteins named here, by UniProt entry; tags and fusion partners are left off. A change or cut given only in a name is not applied to a line headed by its entry.
UniProt O00370: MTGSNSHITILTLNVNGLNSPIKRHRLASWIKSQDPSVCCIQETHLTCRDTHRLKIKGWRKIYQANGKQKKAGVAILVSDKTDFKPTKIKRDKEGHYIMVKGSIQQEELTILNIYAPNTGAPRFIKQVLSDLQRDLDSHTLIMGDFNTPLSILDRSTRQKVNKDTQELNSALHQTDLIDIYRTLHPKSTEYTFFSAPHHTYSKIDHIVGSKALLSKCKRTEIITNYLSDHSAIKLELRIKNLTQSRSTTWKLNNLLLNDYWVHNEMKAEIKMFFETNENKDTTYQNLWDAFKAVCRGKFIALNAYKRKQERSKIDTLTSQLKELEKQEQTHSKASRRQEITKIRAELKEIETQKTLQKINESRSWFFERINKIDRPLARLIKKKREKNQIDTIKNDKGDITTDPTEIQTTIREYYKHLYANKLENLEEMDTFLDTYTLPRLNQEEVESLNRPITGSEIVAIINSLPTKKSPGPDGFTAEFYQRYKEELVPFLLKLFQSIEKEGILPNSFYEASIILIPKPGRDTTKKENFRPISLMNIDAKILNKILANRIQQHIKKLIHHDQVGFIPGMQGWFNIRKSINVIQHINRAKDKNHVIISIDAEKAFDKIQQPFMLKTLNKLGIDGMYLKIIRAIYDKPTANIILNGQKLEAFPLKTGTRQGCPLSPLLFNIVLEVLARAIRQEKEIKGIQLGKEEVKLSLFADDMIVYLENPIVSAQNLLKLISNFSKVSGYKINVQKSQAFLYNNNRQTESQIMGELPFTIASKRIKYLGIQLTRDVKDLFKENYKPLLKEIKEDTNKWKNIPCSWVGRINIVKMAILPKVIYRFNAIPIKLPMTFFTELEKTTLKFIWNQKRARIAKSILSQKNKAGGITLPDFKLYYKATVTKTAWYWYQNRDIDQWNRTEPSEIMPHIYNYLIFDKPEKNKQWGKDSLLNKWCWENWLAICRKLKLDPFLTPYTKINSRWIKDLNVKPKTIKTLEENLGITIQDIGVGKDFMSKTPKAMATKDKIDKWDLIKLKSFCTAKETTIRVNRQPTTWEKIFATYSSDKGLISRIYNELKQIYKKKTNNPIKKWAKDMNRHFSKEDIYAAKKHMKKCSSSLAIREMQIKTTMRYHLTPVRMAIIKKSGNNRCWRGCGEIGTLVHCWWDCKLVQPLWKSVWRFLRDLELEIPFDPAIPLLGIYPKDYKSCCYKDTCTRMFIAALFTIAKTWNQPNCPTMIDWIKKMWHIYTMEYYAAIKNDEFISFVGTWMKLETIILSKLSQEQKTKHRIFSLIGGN

Biochemical assay: concentration at maximum inhibition ([1]; plasmid nicking assay): 750 μM FIG. 2K
Biochemical assay: maximum inhibition ([1]; plasmid nicking assay): 100% inhibition at
in vitro activity against EN (in words) ([2]; in vitro assays with purified EN): relatively low efficacy in vitro
IC50 ([2]; mean ± s.d., 3 independent experiments, read-out: Biochemical assay: fluorescent oligonucleotide nicking assay IC50): 691 ± 142 µM
Kd [3]: 741 ± 394 µM
SMILES: COc1ccc2c(c1)C(=O)N(CCc1ccc(S(=O)(=O)NC(=O)NC3CCCCC3)cc1)C(=O)C2(C)C [AD12, Gliquidone, reference compound]
L1 EN inhibition in the biochemical assay (in words) [1]: inhibited L1 EN activity in the biochemical assay

Reference: patent US20240207249A1, “COMPOSITIONS AND METHODS FOR TREATING, PREVENTING OR REVERSING AGE-ASSOCIATED INFLAMMATION AND DISORDER” (Brown University, priority 2019, published 2024)
